## Permeability data for macrocyclic peptides

Collected by the curators of CycPeptMPDB (Li et al. 2023) from Hosono et al. 2020, doi:10.26434/chemrxiv.12272861.v1.

PAMPA measures passive passage through an artificial lipid membrane.
Values are log10 P with P in cm/s, so -5 is more permeable than -7.

| PAMPA (log10 cm/s) | compound |
|---|---|
| -5.51 | CC(C)C[C@@H]1NC(=O)[C@@H](CC(C)C)NC(=O)[C@H](CC(C)C)OC(=O)[C@H](Cc2ccc(O)cc2)NC(=O)[C@H]2CCCN2C(=O)[C@H](CC(C)C)NC1=O |
| -6.30 | CC(C)C[C@@H]1NC(=O)[C@H](Cc2ccc(O)cc2)NC(=O)[C@H]2CCCN2C(=O)[C@H](CC(C)C)N(C)C(=O)[C@H](CC(C)C)NC(=O)[C@@H](CC(C)C)NC1=O |
| -6.22 | CC(C)C[C@@H]1NC(=O)[C@@H](CC(C)C)NC(=O)[C@H](CC(C)C)N(C)C(=O)[C@H](Cc2ccc(O)cc2)NC(=O)[C@H]2CCCN2C(=O)[C@H](CC(C)C)NC1=O |
| -6.40 | CC(C)C[C@@H]1NC(=O)[C@@H](CC(C)C)OC(=O)[C@H](CC(C)C)NC(=O)[C@H](Cc2ccc(O)cc2)NC(=O)[C@H]2CCCN2C(=O)[C@H](CC(C)C)NC1=O |
| -5.54 | CC(C)C[C@@H]1NC(=O)[C@H](Cc2ccc(O)cc2)NC(=O)[C@H]2CCCN2C(=O)[C@H](CC(C)C)OC(=O)[C@H](CC(C)C)NC(=O)[C@@H](CC(C)C)NC1=O |
| -5.39 | CC(C)C[C@@H]1NC(=O)[C@H](Cc2ccc(O)cc2)NC(=O)[C@H]2CCCN2C(=O)[C@H](CC(C)C)NC(=O)[C@H](CC(C)C)OC(=O)[C@@H](CC(C)C)NC1=O |

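Conditions beyond the assay type are not listed; see the original paper. The list need not hold all peptides of the study. Entries at the database's floor value (log10 P of -10) are not listed.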